# scFv variants of Ab-14 (light chain) against a SARS-CoV-2 spike peptide

Reference: Engelhart et al. 2022, doi:10.1038/s41597-022-01779-4. File: FLAb, binding data.

Antigen: PDVDLGDISGINAS, a 14-residue peptide of the SARS-CoV-2 spike HR2 region.

Ab-14 is the parent antibody, in scFv form: VH, then a 15-residue (Gly4Ser)3 linker, then VL. The heavy chain is unchanged in all variants.
VH: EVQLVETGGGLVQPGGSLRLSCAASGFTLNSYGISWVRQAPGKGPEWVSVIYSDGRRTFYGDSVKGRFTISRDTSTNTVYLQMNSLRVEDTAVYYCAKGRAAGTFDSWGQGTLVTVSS
VL: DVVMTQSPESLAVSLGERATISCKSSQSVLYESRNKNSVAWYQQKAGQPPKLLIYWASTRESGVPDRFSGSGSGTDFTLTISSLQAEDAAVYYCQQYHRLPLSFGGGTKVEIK

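The parent was found by panning a naive human phage display library on the peptide. AAYL50 was designed without a model: most single CDR substitutions and a random sample of double and triple ones. In AlphaSeq, yeast of one mating type display the scFv and yeast of the other type display the target. Mating (16 h, 30 °C) was followed by selection of diploids and sequencing of their barcodes. The ratio of observed to expected reads was calibrated, replicate by replicate, on BCL2-family standards whose Kd was known from biolayer interferometry. Mating was done three times.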

Substitutions are numbered in sequence along the VL above, starting at 1 (not Kabat).
Affinities are written as log10 Kd with Kd in nM; a lower number is a better binder.
Averages over replicates are reported, and they cover detected replicates only.
A pair that was not seen in any replicate is written "nd"; this usually means weak binding, but a binder can also be missed.
Parent in this assay: reference entry 0.65, copy in this library 1.68.
Empty control strains, which show no peptide, gave a signal in 18% of pairings with library AAYL50; the median was 4.19 and 95% of these signals were weaker than 2.99. No background was subtracted. Also given: how often the same scFv was detected with the empty control strains.

| # | changes | mean log10 Kd (nM) | detected | signal with controls |
|---|---|---|---|---|
| 1 | Y31M/W56V/S62P | 1.11 | 1 of 3 | 0 of 9 |
| 2 | Q27I/N35L/S58F | 4.10 | 2 of 3 | 1 of 9 |
| 3 | K24V/E32D/L102F | nd | 0 of 3 | 1 of 9 |
| 4 | E32T/E61C/Y97A | 3.66 | 2 of 3 | 3 of 9 |
| 5 | S28T/K36Q/Q96P | 3.99 | 1 of 3 | 3 of 9 |
| 6 | K36G/S103A | 1.58 | 3 of 3 | 0 of 9 |
| 7 | A40D/W56A | 2.67 | 1 of 3 | 0 of 9 |
| 8 | L30D/Q96Y/P101D | 1.47 | 3 of 3 | 1 of 9 |
| 9 | K24Y/W56S | 0.49 | 3 of 3 | 0 of 9 |
| 10 | S26L/Y97G | 1.70 | 3 of 3 | 5 of 9 |
| 11 | T59L/Q96V/P101Q | 0.91 | 3 of 3 | 1 of 9 |
| 12 | S26M/Q27Y/E32Y | 3.02 | 2 of 3 | 2 of 9 |
| 13 | W56K/T59I/H98I | -0.03 | 3 of 3 | 3 of 9 |
| 14 | K24Y/K36Y/L100M | 2.70 | 3 of 3 | 0 of 9 |
| 15 | S38D/Q96M/P101L | 1.49 | 3 of 3 | 2 of 9 |
| 16 | A40C/Q96G/S103Y | 3.63 | 2 of 3 | 5 of 9 |
| 17 | A57D/L102T/S103W | 1.12 | 3 of 3 | 6 of 9 |
| 18 | W56G/T59D/R60E | 3.29 | 1 of 3 | 0 of 9 |
| 19 | A40C/R60P/Y97D | 4.24 | 2 of 3 | 4 of 9 |
| 20 | L30M/N35A/Y97R | nd | 0 of 3 | 1 of 9 |
| 21 | S25P/E61S/Q96L | 3.45 | 2 of 3 | 3 of 9 |
| 22 | S33R/V39L/S62W | 3.05 | 3 of 3 | 3 of 9 |
| 23 | A57E/R60C | nd | 0 of 3 | 0 of 9 |
| 24 | R34N/T59P/Q95Y | nd | 0 of 3 | 1 of 9 |
| 25 | E32A/T59E/H98P | 1.65 | 3 of 3 | 3 of 9 |
| 26 | L30R/N35Y/S38T | 4.44 | 3 of 3 | 8 of 9 |
| 27 | S26W/L100T/P101K | 5.12 | 3 of 3 | 5 of 9 |
| 28 | S25I/L30T/V39D | 4.28 | 1 of 3 | 2 of 9 |
| 29 | S25L/S62I | -0.18 | 3 of 3 | 2 of 9 |
| 30 | E32G/R34M/R60P | 1.58 | 3 of 3 | 0 of 9 |
| 31 | S28H/Y31Q/E32N | 0.62 | 3 of 3 | 1 of 9 |
| 32 | Q27M/Q96I/S103H | nd | 0 of 3 | 1 of 9 |
| 33 | S33G/N37G/L102D | 0.82 | 3 of 3 | 1 of 9 |
| 34 | S25P/S33H/L100M | 3.73 | 3 of 3 | 1 of 9 |
| 35 | E32L/V39E/W56M | nd | 0 of 3 | 0 of 9 |
| 36 | Y97R/P101T | 2.90 | 3 of 3 | 8 of 9 |
| 37 | Q27G/L30C/K36M | 2.13 | 3 of 3 | 1 of 9 |
| 38 | T59E/R60G/S103A | 5.30 | 1 of 3 | 3 of 9 |
| 39 | V39K/R99K | 4.83 | 2 of 3 | 5 of 9 |
| 40 | Q27A/S62F/Q96E | 3.88 | 1 of 3 | 2 of 9 |
| 41 | E32N/R60N/E61G | nd | 0 of 3 | 0 of 9 |
| 42 | R60P/H98I/S103G | nd | 0 of 3 | 1 of 9 |
| 43 | S33V/S38V/S62C | 5.35 | 2 of 3 | 2 of 9 |
| 44 | Q27C/V29Q/Q96W | 1.73 | 3 of 3 | 1 of 9 |
| 45 | P101L/L102H | 2.30 | 3 of 3 | 4 of 9 |
| 46 | K36A/Q95Y/L100I | 4.41 | 2 of 3 | 6 of 9 |
| 47 | Y31M/V39R/W56R | 5.38 | 1 of 3 | 0 of 9 |

The last 4 entries again:

| changes | mean log10 Kd (nM) | detected | signal with controls |
|---|---|---|---|
| Q27C/V29Q/Q96W | 1.73 | 3 of 3 | 1 of 9 |
| P101L/L102H | 2.30 | 3 of 3 | 4 of 9 |
| K36A/Q95Y/L100I | 4.41 | 2 of 3 | 6 of 9 |
| Y31M/V39R/W56R | 5.38 | 1 of 3 | 0 of 9 |